# Antibody variant affinities, Ab-14 light chain, assay B

Target: peptide PDVDLGDISGINAS, taken from heptad repeat 2 (HR2) of SARS-CoV-2 spike.

The variants keep the heavy chain, the linker and the frameworks of Ab-14 (scFv order VH, a (GGGGS)3 linker, VL).
VH: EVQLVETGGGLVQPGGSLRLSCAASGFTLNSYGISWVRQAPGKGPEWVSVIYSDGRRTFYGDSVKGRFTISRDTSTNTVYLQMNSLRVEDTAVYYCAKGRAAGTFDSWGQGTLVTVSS
VL: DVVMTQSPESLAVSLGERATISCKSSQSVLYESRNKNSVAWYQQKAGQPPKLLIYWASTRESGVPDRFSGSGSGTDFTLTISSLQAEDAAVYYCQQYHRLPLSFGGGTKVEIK

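The parent was found by panning a naive human phage display library on the peptide. These sequences belong to a second round, designed from the earlier measurements on random variants of the parent. Several design methods are mixed in this list. Affinity was read by AlphaSeq, a pooled yeast mating assay with surface-displayed partners. The frequency of each diploid, read from paired DNA barcodes, reflects how well the two displayed proteins bind. A regression on co-assayed BCL2-family reference pairs converts the normalised counts of each replicate to an apparent Kd. The assay was run in six technical replicates.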

Variants are written as CDR1, CDR2 and CDR3 of the light chain (limits as in the source). Parent: KSSQSVLYESRNKNSVA, WASTRES, QQYHRLPLS.
Values are log10 of the apparent Kd in nM; lower means stronger binding.
A mean of the replicates is given; it leaves out those without a signal.
A pair that was not seen in any replicate is written "no signal"; this usually means weak binding, but a binder can also be missed.
The authors averaged sequences with at least three values out of six and counted those with two or fewer as poor binders.
A sequence measured in both rounds can read differently, since the two assays cover different ranges.
Three control strains display no target. For all light chain designs, 4% of the pairings with them gave a signal, with a median of 2.64 and one signal in twenty below 1.59, so weak values seen in few replicates may be background. For each scFv, signals with the empty controls are counted beside the result.
Some sequences occur more than once in the pool; their replicates are pooled.

CDR-L1	CDR-L2	CDR-L3	mean log10 Kd (nM)	replicates with signal	signal with controls
HSSPSVLYESRNGNSVA	NASTREW	QQYHRLPLS	0.68	6/6	1/18
KSSQSVLFESRNKNSVA	DASTRSS	FCYHRLPLS	2.98	3/6	2/18
SFSQTVMYESTYRNNVA	QTSTRES	QQYDRLPLS	0.57	6/6	2/18
KCEQSVLYESQNKNSVA	WASTRES	QQYHRLPNS	2.08	6/6	0/18
KVSQSFLYESRNKNSVA	EASTRES	QQYHRLPLS	-0.25	6/6	0/18
KSSGSVCYGDRMKNSVA	NASTREQ	QQYHRLPLS	0.36	6/6	0/18
KSSQSVLYESSNKYSVA	SASTRES	QQYHRLPLS	0.60	6/6	0/18
NLNDSDMYAQIMTDNIA	QDTQRNE	QQYAKLPLS	no signal	0/6	0/18
YHSQSVLYESRNKNSVA	WASTRES	QQYHRLPLS	no signal	0/6	0/18
KLSQGWLYESREKNSVA	NASQREE	QQYHRLPLS	0.21	6/6	0/18
KLDSAEQHGTNQKSAMA	SASVSTQ	QQYSRLPLS	0.85	6/6	0/18
KQSQSLLCESRNKNSVA	DASTRES	QQYHRLPLS	0.15	6/6	2/18
KSSQSVLAESRNKNSVA	FGSTRES	QQYHRLPLS	1.49	6/6	2/18
KISMMSSIESIMHNSVA	QTSTREN	QQYDRLPLS	0.49	6/6	1/18
KLWQSQLYESRNKNSVA	NASQRES	QQYHRLPLS	-0.28	6/6	0/18
KMLQSVLYESRNKNSVA	HASTRED	QQYGRLPLS	0.02	6/6	0/18
MMSFSVLYESRNQNSVA	AASTRES	QQYHRLPLS	0.96	6/6	1/18
KSSISYMEESRNKNSVA	EASTRES	QQYHRLPLS	0.14	6/6	1/18
KMSQSVLYESRNKNSVA	MASTRES	QQYHRLPLS	0.19	6/6	2/18
KSSQSVLYESRNKNSVA	WASTRES	QQYHRLYLS	2.25	5/6	0/18
KYYPSYLGESRNKNSVA	QASTRES	QQYHRLPLS	0.01	6/6	0/18
SISMLLNFESKKGSNVA	QMETRVN	QQYDRLPLS	0.35	6/6	1/18
HISQMVMYGSCNKNNVA	QVQLREE	QQYHRLPLS	0.80	6/6	0/18
HISQSVGMTLRNKNSVA	ENSTRED	QQYDRLPLS	2.08	6/6	3/18
KMSQSVPYESRNKNSVA	DASTRES	QQYHRLPLS	-0.27	6/6	1/18
KLLQSVQYGSRALNSVA	QMETRED	QQYHRLPLM	0.28	6/6	0/18
RMNKFMSGATEAKNSMA	GQEHRAQ	QSYHRLPLS	0.64	6/6	1/18
TIGQTLMAGIRNRSNVA	EVSQRLN	QQYDRLPLM	1.58	6/6	3/18
KVSPSVLYESRNKNSVA	DASTRES	QQYHRLPLS	-0.47	6/6	3/18
KISQSWLYESRNKNSVA	NASTRES	QQYHRLPLS	-0.22	12/12	4/36
KLSPNVCYYSRDKNPVA	WASTRES	QQYHRLPLF	no signal	0/6	1/18
KMENSNGYESRNKNSVA	NASTRES	QQYHRLPLS	-0.44	6/6	4/18
KVQQSWLYESRNKNSVA	NASLRES	QQYHRLPLS	-0.04	6/6	0/18
KLWQSVLYESRNKNSVA	QASTRES	QQYHRLPLS	0.17	6/6	0/18
KSSQNVLYESRNKNSVA	WASTRES	QQYHRLPLS	0.16	2/6	0/18
KSSISNLGEKRNKNSVA	EASTRES	QQYHRLPLS	0.58	6/6	4/18
IVSQLMLWGMHAKNSIA	EAETRIN	QQYHRLPLI	1.96	1/6	1/18
KLSQSVEYESRMKNSVA	NASQRES	QQYHRLPLS	0.34	6/6	1/18
QLSMITGHYSMIKNNVA	EMETREN	QQYDRLPLS	1.90	6/6	1/18
IVSQSVLGESRNKNSVA	QMSEREY	QQYDRLPLS	1.43	6/6	0/18
KVEPSVQGEQRNFNAVA	EASTREQ	QQYHRLPLS	-0.06	6/6	0/18
KSSQSVLYESRNKNSVA	WASTRES	QQYHRLPIS	no signal	0/6	0/18
KISQSELYESRNKNSVA	EASTRES	QQYHRLPLS	-0.21	6/6	1/18
KIKELFAMWARAQGNVA	DATQRCT	QQYSRLPIT	0.42	6/6	0/18
KISMLYNYASTNKNSIA	EMTTREQ	QHYHRLPLS	1.00	6/6	1/18
KFSQSVDYESRTKNSVA	NASTRES	QQYHRLPLS	1.19	6/6	0/18
KLSQSWLMESRNKNSVA	EASTRQS	QQYHRLPLS	-0.15	6/6	2/18
KLQQSVQYESRNKNSVA	NASTRES	QQYHRLPLS	-0.17	6/6	0/18
KISQSVNVGTKNKNSLA	EMSTREF	QDYHRLPLS	0.75	6/6	0/18
KLRQSTNYESRNKNSVA	NASTRES	QIYHRLPLS	0.35	6/6	0/18
ASSQSVMGEERNKNSVA	AASTREV	QQYHRLPLS	0.25	6/6	2/18
KQSQSVLYESRNKNSVA	NGSTRES	QQYHRLPLS	0.64	6/6	1/18
KLSQSQLYESRNKNQVA	SASTREM	QQYHRLPLS	0.15	6/6	0/18
KLSQSNLYESRNKNSVA	NASTREM	QQYHRLPLS	-0.27	6/6	0/18
MMSQLTYMGSRARNAVA	QAEMRVN	QQYHHLPLF	0.94	5/6	1/18
HLHTINYTEGIGTNSIA	DANLHVT	QQYFRLPIM	1.27	6/6	1/18
HIQSNMFGFGGVANNVA	QTNTKMV	QQYSKLPLM	1.09	6/6	1/18

The 5 strongest on average among those seen in every replicate, once more:

CDR-L1,CDR-L2,CDR-L3,mean log10 Kd (nM),replicates with signal,signal with controls
KVSPSVLYESRNKNSVA,DASTRES,QQYHRLPLS,-0.47,6/6,3/18
KMENSNGYESRNKNSVA,NASTRES,QQYHRLPLS,-0.44,6/6,4/18
KLWQSQLYESRNKNSVA,NASQRES,QQYHRLPLS,-0.28,6/6,0/18
KMSQSVPYESRNKNSVA,DASTRES,QQYHRLPLS,-0.27,6/6,1/18
KLSQSNLYESRNKNSVA,NASTREM,QQYHRLPLS,-0.27,6/6,0/18

Source: Li et al. 2023 (doi:10.1038/s41467-023-39022-2), MIT Lincoln Laboratory and A-Alpha Bio; data file from the FLAb repository.